Reference: ChEMBL document CHEMBL4402605, “A Chemical Switch for Transforming a Purine Agonist for Toll-like Receptor 7 to a Clinically Relevant Antagonist” (J Med Chem, 2020)
The source made the active and inactive calls. The calls are words filed in the database; no cut-off is given here.

Biological target: T1, Toll-like receptor 8 (Homo sapiens) (UniProt Q9NR97)
T1 sequence (whole entry): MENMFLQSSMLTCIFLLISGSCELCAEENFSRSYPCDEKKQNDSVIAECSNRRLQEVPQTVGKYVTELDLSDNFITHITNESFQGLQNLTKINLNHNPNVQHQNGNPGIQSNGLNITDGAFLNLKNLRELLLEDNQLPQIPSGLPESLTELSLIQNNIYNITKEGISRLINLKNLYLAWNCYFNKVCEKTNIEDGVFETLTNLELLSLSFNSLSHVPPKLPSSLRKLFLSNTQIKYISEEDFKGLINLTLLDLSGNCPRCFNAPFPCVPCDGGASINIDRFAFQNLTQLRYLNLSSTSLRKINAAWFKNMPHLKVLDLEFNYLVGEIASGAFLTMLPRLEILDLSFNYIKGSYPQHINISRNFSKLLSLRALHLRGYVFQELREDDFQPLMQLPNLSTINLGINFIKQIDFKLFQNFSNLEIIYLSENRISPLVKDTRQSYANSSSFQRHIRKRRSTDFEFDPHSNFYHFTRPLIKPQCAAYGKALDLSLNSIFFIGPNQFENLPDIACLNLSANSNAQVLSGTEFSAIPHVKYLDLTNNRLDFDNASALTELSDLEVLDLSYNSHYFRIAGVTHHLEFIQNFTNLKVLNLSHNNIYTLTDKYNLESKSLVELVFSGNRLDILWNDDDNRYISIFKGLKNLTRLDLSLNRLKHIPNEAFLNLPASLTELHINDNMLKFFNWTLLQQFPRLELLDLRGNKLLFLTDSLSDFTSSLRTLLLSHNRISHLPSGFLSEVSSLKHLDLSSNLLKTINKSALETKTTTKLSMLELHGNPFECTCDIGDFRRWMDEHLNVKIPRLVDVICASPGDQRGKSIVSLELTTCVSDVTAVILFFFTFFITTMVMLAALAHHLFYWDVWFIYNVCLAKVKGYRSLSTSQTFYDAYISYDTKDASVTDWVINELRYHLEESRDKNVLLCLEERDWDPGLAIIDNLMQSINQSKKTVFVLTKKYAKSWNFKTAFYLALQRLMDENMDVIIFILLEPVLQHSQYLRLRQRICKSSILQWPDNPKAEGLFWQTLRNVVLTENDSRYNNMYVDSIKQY
Test: Antagonist activity at human TLR8 expressed in HEK-Blue cells assessed as inhibition of CL075-induced NFkappaB activation by measuring reduction in SEAP level up to 50 uM after overnight incubation using qunati-blue reagent by SEAP reporter gene-based spectrophotometric method
Format: cell-based

inhibition: inactive
SMILES: CCN1CCN(CCCn2cnc3c(N4CCN(C5CCCC5)CC4)ncnc32)CC1
